{"sequences": {"note": "The chains behind the UniProt entries cited, without tags or fusion partners. Residues count along the entry.", "UniProt P52333, 810-1124": "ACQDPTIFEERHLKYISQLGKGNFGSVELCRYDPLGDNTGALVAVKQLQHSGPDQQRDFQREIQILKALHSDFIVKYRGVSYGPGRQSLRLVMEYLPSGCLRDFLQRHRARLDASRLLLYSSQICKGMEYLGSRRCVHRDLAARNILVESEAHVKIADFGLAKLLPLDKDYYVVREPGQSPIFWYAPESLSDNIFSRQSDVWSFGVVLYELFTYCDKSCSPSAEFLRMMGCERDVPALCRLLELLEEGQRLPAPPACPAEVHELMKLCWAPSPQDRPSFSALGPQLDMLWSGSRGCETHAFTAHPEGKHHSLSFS"}, "source": "patent US8518945B2", "about": "“Pyrrolopyrazine kinase inhibitors” (Hoffmann-La Roche Inc., priority 2010, dated 2013)"}
{"target": "T1, h-jak3(810-1124) (JAK3: Recombinant human kinase domain) (Homo sapiens, UniProt P52333)", "T1 construct": "jak3(810- 1124)-sf9-c; made in house; host or cells: Sf9", "assay": "Determination of IC50 of Janus Kinase (JAK) inhibition: JAK3 radioactive end-point 33P-ATP kinase assay", "format": "biochemical", "conditions": "no additive; ATP 1.5 uM, peptide 50 uM, 20 minutes, room temperature; read-out: Ic50 h-jak3(810-1124)-sf9-c: no additive", "units": {"IC50": "nM"}}
{"smiles": "C[C@@H](NC(=O)c1c[nH]c2ncc(C3CC3)nc12)C(=O)N1CCCC1", "note": "[Example I-1, 2-Cyclopropyl-5H-pyrrolo[2,3-b]pyrazine-7-carboxylic acid ((R)-1-methyl-2-oxo-2-pyrrolidin-1-yl-ethyl)-amide]", "IC50": 51.6}
{"smiles": "C[C@H](NC(=O)c1c[nH]c2ncc(C3CC3)nc12)C(=O)N1CCCC1", "note": "[Example I-6, 2-Cyclopropyl-5H-pyrrolo[2,3-b]pyrazine-7-carboxylic acid ((S)-1-methyl-2-oxo-2-pyrrolidin-1-yl-ethyl)-amide]", "IC50": 3040}
{"smiles": "C[C@@H](NC(=O)c1c[nH]c2ncc(C3CC3)nc12)C(=O)N1CCC1", "note": "[Example I-17, 2-Cyclopropyl-5H-pyrrolo[2,3-b]pyrazine-7-carboxylic acid ((R)-2-azetidin-1-yl-1-methyl-2-oxo-ethyl)-amide]", "IC50": 148}
{"smiles": "C[C@@H](NC(=O)c1c[nH]c2ncc(C3CC3)nc12)C(=O)N1CC(C#N)C1", "note": "[Example I-20, 2-Cyclopropyl-5H-pyrrolo[2,3-b]pyrazine-7-carboxylic acid [(R)-2-(3-cyano-azetidin-1-yl)-1-methyl-2-oxo-ethyl]-amide]", "IC50": 7.05}
{"smiles": "N#C[C@@H]1CCN(C(=O)[C@H](NC(=O)c2c[nH]c3ncc(C4CC4)nc23)C2CC2)C1", "note": "[Example I-83, 2-Cyclopropyl-5H-pyrrolo[2,3-b]pyrazine-7-carboxylic acid [(R)-2-((R)-3-cyano-pyrrolidin-1-yl)-1-cyclopropyl-2-oxo-ethyl]-amide]", "IC50": "≤ 0.32"}
{"smiles": "COc1cc(-c2cnc3[nH]cc(C(=O)N[C@H](C)C(=O)N4CC(C#N)C4)c3n2)cc(OC)c1OC", "note": "[Example I-125, 2-(3,4,5-Trimethoxy-phenyl)-5H-pyrrolo[2,3-b]pyrazine-7-carboxylic acid [(R)-2-(3-cyano-azetidin-1-yl)-1-methyl-2-oxo-ethyl]-amide]", "IC50": 0.35}
